pIC50: −log10 of the molar value.

Sequences of proteins named here, by UniProt entry; tags and fusion partners are left off.
UniProt P53350, whole entry: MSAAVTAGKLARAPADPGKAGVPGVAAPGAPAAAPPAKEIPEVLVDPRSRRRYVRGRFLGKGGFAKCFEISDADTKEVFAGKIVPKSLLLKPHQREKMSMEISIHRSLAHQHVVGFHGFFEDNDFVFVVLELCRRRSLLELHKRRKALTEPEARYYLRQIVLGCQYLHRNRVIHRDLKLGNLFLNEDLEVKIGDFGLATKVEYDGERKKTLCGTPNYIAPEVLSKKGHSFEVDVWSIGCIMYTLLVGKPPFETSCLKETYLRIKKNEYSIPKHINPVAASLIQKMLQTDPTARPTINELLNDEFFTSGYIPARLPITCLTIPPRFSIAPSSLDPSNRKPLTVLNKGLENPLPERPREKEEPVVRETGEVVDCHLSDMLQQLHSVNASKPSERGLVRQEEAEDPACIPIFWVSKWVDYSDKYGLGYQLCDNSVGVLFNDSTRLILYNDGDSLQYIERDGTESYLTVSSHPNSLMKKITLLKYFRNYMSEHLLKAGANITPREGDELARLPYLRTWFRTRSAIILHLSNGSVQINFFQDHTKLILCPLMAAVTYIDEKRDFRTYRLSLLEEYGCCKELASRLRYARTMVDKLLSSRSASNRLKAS

The values that follow come from patent publication US20060079503A1, “Thiazolidinones and the use therof as polo-like kinase inhibitors” (SCHERING AKTIENGESELLSCHAFT, priority 2002, published 2006).

The experiment concerns the target Recombinant human Plk-1 (6×His) (Homo sapiens, UniProt P53350). The experiment is described as follows: PLK enzyme assay (33P-γ-ATP incorporation into biotinylated casein, SPA beads). The following applies: read-out: Inhibition of PLK-1 IC50; 10 ng PLK enzyme, 90 minutes at room temperature, 0.5 μmol of ATP, casein substrate. How it is done:
Recombinant human Plk-1 (6×His) was purified from baculovirus-infected insect cells (Hi5).
10 ng of (produced in a recombinant manner and purified) PLK enzyme is incubated for 90 minutes at room temperature with biotinylated casein and 33P-γ-ATP as a substrate in a volume of 15 μl in 384-well Greiner small-volume microtiter plates (final concentrations in the buffer: 660 ng/ml of PLK; 0.7 μmol of casein, 0.5 μmol of ATP incl. 400 nCi/ml of 33P-γ-ATP; 10 mmol of MgCl2, 1 mmol of MnCl2; 0.01% NP40; 1 mmol of DTT, protease inhibitors; 0.1 mmol of Na2VO3 in 50 mmol of HEPES, pH 7.5). To complete the reaction, 5 μl of stop solution (500 μmol of ATP; 500 mmol of EDTA; 1% Triton X100; 100 mg/ml of streptavidin-coated SPA beads in PBS) is added. After the microtiter plate is sealed by film, the beads are sedimented by centrifuging (10 minutes, 1500 rpm). The incorporation of 33P-γ-ATP in casein is intended as a measurement of enzyme activity by β-counting.
Test substances are used in various concentrations (0 μmol, as well as in the range of 0.01-30 μmol). The final concentration of the solvent dimethyl sulfoxide is 1.5% in all batches.

For orientation: pIC50 means −log10 of the IC50, conventionally taken in molar units. As to `CCOC(=O)C(C#N)=c1sc(=CNc2ccc(C(N)=O)cc2)c(=O)n1CC` (mixture of isomers) [Example 10, (E or Z)-{5-(E/Z)-[(4-Carbamoyl-phenylamino)-methylene]-3-ethyl-4-oxo-thiazolidin-2-ylidene}-cyanoacetic acid ethyl ester], the pIC50 was 6.39. As to `CCOC(=O)C(C#N)=c1sc(=CNC(=O)OC)c(=O)n1CC` (single isomer, unassigned) [55], the pIC50 was 5.82.

On to `CCOC(=O)C(C#N)=c1sc(=CNC(=O)OC)c(=O)n1CC` (single isomer, unassigned) [56], for which the pIC50 is 5.66.
